Biological target: T1, 3-dehydroquinate dehydratase (Helicobacter pylori (strain ATCC 700392 / 26695) (Campylobacterpylori), UniProt Q48255)
T1 sequence (Q48255 whole entry): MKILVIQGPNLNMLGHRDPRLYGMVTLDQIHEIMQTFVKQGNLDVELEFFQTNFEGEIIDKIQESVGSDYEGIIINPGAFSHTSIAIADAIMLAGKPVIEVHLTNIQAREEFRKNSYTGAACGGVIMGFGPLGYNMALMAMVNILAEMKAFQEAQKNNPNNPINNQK
Assay: Inhibition of Helicobacter pylori DHQ2 by UV spectroscopy

`Cc1ccc2sc(COC3=C[C@@](O)(C(=O)O)C[C@@H](O)[C@@H]3O)cc2c1` was tested, and the Ki was 130 nM.
